Test system: Ovarian-63 (OV63) ovarian cancer PDX
Test: In vivo efficacy, OV63 ovarian cancer PDX
Parameters: species or system NOD/SCID mice (human tumor PDX)

B1: huE22-AcBut-CM: huE22 conjugated via lysine residues to AcBut-N-acetyl-γ-calicheamicin dimethyl hydrazide (AcBut-CM) (conjugate)
heavy: QVQLVQSGAEVKKPGASVKVSCKASGYTFTGYYIHWVRQAPGQGLEWMGWIYPGNFNTKYNERFKGRVTMTTDTSTSTAYMELRSLRSDDTAVYYCAREDGSPYYAMDYWGQGTSVTVSSASTKGPSVFPLAPSSKSTSGGTAALGCLVKDYFPEPVTVSWNSGALTSGVHTFPAVLQSSGLYSLSSVVTVPSSSLGTQTYICNVNHKPSNTKVDKKV[human IgG1 Fc omitted here]
light: DIVMTQTPLSLSVTPGQPASISCRSSQSLVHSNGNTFLYWYLQKPGQSPQLLIYRVSNRFSGVPDRFSGSGSGTDFTLKISRVEAEDVGVYYCFQATHVPWTFGGGTKVEIKRTVAAPSVFIFPPSDEQLKSGTASVVCLLNNFYPREAKVQWKVDNALQSGNSQESVTEQDSKDSTYSLSSTLTLSKADYEKHKVYACEVTHQGLSSPVTKSFNRGEC
Q: For B1, which “% TGI” value (0.09 mg/kg, OV63 PDX) is on record?
A: The value was 59% TGI.

Q: What about the tumor regression (0.27 mg/kg) of the same molecule?
A: Its tumor regression is “Transient tumor regressions were achieved”.

Q: What about the “Regression (TTP, Days)” value (0.27 mg/kg, OV63 PDX) of the same molecule?
A: Its value is “Regression (88) Days”.

Q: And the “effect on tumor growth” value (0.036 and 0.09 mg/kg)?
A: Its value is “delays in tumor growth achieved”.

Reference: patent US9872922B2, “Anti-EFNA4 antibody-drug conjugates” (PFIZER, INC., priority 2013, dated 2018)
